Measurements as given in patent US20260373262 (published 2026).
Numbering of substitutions follows the chain as printed. Each block holds one binder with its values, some of them ahead of it.

Experiments:
HLA-G1 (cell-expressed) [1] = biological target: T1, HLA-G1 (cell-expressed) (human, UniProt P17693); experiment: FACS
HLA-G1 (cell-expressed) [2] = biological target: T1, HLA-G1 (cell-expressed)
HLA-G (NM_002127.5) = HLA-G (NM_002127.5) (human, UniProt P17693); experiment: FACS

EC50 (HLA-G1 (cell-expressed) [1]): 0.05 µg/mL
Kd (HLA-G1 (cell-expressed) [2]): 2.76 nM
EC50 (HLA-G (NM_002127.5)): 0.35 µg/mL
B1: hLFTT-1 VH4/VL5 (antibody, V domains shown)
VH: QIQLVQSGSELKKPGASVKVSCKASGYTFTTYGMSWVRQAPGQGLKWMGWIYTYSGVPTYADDLTGRFVFSLDTSVSTAYLQISSLKAEDTATYYCARVRDGYYRYAMDYWGRGTLVTVSS
VL: DIQMTQSPSSLSVSVGDRVTITCKASQDINRYIAWYQQQPGKAPKLLIHFTSTLQSGVPSRFSGSGSGTDFTFTISSLQPEDIATYYCLQYDDLRTFGQGTKLEIK

Kd (HLA-G1 (cell-expressed) [2]): 3.31 nM
B2: LFTT-1 VH5/VL4 (antibody, V domains shown)
VH: B1 VH with K46E
VL: B1 VL with T69R

Kd (HLA-G1 (cell-expressed) [2]): 4.4 nM
B3: LFTT-1 VH5/VL3 (antibody, V domains shown)
VH: B1 VH with K46E
VL: B1 VL with V58I, T69R
